Biological target: T1, HDAC10 (Homo sapiens, UniProt Q969S8)
T1 sequence (Q969S8 1-669): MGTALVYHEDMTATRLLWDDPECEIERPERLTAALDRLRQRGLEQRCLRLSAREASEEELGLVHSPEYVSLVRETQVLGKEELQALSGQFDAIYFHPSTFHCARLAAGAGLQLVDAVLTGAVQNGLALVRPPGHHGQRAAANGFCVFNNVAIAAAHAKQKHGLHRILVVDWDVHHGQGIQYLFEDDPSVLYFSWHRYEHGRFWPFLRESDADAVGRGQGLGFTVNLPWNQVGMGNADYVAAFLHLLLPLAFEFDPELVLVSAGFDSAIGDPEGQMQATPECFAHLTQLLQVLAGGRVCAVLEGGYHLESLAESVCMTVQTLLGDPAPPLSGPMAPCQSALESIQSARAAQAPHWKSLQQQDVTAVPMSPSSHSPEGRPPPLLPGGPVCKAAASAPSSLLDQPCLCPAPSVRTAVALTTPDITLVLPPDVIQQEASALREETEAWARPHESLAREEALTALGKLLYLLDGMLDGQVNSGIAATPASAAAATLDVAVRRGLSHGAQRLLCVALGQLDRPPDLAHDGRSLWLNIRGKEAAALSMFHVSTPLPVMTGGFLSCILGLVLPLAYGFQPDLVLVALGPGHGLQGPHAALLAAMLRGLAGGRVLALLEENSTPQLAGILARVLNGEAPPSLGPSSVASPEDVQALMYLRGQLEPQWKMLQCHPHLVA
Assay: Inhibition of histone deacetylase isoforms, HDAC10

SMILES: O=C(CCCCCCC(=O)Nc1ccccc1)NO [SAHA]
- IC50: 152 nM
